The species entered for assay [1] is Homo sapiens. As to the kind of experiment: Selectivity ratio of IC50 for HDAC1 (unknown origin) to IC50 for HDAC3 (unknown origin).
The species named for assay [2] is Homo sapiens. Kind of assay: Selectivity ratio of IC50 for HDAC2 (unknown origin) to IC50 for HDAC3 (unknown origin).

With `Nc1ccccc1NC(=O)c1cnccn1`, the Ratio IC50 in assay [1] and in assay [2] was 7 throughout.

Source of the values: ChEMBL document CHEMBL4270635, “HDAC3 is a potential validated target for cancer: An overview on the benzamide-based selective HDAC3 inhibitors through comparative SAR/QSAR/QAAR approaches” (Eur J Med Chem, 2018).
